One test concerns the target D(2) dopamine receptor (Homo sapiens, UniProt P14416). The test can be described thus: Displacement of [125I]IABN from human dopamine D2 receptor expressed in HEK293 cells. Format: cell-based.
The species named for test [1] is Homo sapiens. In words: Selectivity for human dopamine D3 receptor over human 5HT1A receptor.
Test [2] is filed under the species Homo sapiens. In words: Selectivity for human dopamine D3 receptor over human 5HT2A receptor.
The species named for test [3] is Homo sapiens. In words: Selectivity for human dopamine D3 receptor over human 5HT2C receptor.

Protein sequences, listed by entry. Tags and fused reporters are not part of them.
UniProt P14416, whole entry: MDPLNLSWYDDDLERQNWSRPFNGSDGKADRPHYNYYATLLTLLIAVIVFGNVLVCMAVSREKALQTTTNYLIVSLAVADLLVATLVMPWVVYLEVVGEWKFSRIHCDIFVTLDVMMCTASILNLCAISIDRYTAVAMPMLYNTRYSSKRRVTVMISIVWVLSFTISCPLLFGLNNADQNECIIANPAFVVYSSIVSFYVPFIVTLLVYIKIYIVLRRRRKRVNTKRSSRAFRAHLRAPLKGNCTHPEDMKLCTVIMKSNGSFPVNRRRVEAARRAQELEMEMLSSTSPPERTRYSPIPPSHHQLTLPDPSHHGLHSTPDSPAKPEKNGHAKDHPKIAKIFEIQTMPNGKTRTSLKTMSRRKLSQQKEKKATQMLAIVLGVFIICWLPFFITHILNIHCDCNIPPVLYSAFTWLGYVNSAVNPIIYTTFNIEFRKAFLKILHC

Drawing on ChEMBL document CHEMBL1148745, “Heterocyclic analogues of N-(4-(4-(2,3-dichlorophenyl)piperazin-1-yl)butyl)arylcarboxamides with functionalized linking chains as novel dopamine D3 receptor ligands: potential substance abuse therapeutic agents” (J Med Chem, 2007), this text covers Ki and Ratio Ki for three compounds.

As to `COc1ccccc1N1CCN(CCCCNC(=O)c2ccc(-c3ccccn3)cc2)CC1`, at D(2) dopamine receptor, affinity was put at a Ki of 28.3 nM. Also, the Ratio Ki in the test filed under Homo sapiens [1] was 17; in the test filed under Homo sapiens [2] it was 570; in the test filed under Homo sapiens [3], 1840.

The compound `COc1ccccc1N1CCN(CCCCNC(=O)c2ccc3c(c2)Cc2ccccc2-3)CC1` gave a Ki at D(2) dopamine receptor of 55.4 nM. Besides, the values for the Ratio Ki in the test listed under Homo sapiens [1], in the test listed under Homo sapiens [2] and in the test listed under Homo sapiens [3] were 113, 520 and 1090, respectively.

Take `O=C(NC[C@H]1C[C@H]1CN1CCN(c2cccc(Cl)c2Cl)CC1)c1ccc(-c2ccccn2)cc1` (relative stereo): the affinity on D(2) dopamine receptor corresponds to a Ki of 1050 nM. This counts as single-digit micromolar.
